Legend:
[1] = test system: Erk1/2; assay: Erk1/2 activation in HN5 cells (Western blot); conditions: 72 h, GW572016 500 nM or 1 μM, Herceptin 10 μg/ml
[2] = test system: Erk1/2; assay: Erk1/2 activation in BT474 cells (Western blot); conditions: 72 h, GW572016 500 nM or 1 μM, Herceptin 10 μg/ml
[3] = test system: Erk1/2; assay: p-Erk1/2 in Hb4a cells (Western blot); conditions: 72 h, GW572016 5 μM, Herceptin 10 μg/ml

Substance: Herceptin™: humanized anti-erbB2 monoclonal antibody [reference compound]
- p-Erk1/2 levels compared with untreated controls [1]: very little effect
- p-Erk1/2 levels compared with untreated controls [2]: very little effect
- Baseline p-Erk [3]: relatively little change
